# Reference: patent US4539208A, “Combination of thienamycin-type antibiotics with dipeptidase inhibitors” (Merck & Co., Inc., priority 1981, dated 1985)
# Molecular target: T1, renal dipeptidase (E.C.3.4.13.11) (Sus scrofa, UniProt P22412)
# T1 construct: solubilized preparation of dipeptidase isolated from hog kidneys; from tissue; host or cells: hog (pig) kidney
# T1 sequence (P22412 17-409): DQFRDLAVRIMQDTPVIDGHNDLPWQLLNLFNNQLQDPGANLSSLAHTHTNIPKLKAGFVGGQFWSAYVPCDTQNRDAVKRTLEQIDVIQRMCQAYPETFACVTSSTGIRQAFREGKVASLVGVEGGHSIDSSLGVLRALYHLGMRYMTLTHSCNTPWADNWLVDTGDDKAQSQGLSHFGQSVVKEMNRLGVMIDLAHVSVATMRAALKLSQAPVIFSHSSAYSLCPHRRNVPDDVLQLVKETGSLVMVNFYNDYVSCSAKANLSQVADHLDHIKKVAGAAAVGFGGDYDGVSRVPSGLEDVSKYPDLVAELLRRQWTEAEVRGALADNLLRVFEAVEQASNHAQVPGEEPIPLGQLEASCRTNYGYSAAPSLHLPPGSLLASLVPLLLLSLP
# Assay: Inhibition of GDP (glycyldehydrophenylalanine) hydrolysis by solubilized renal dipeptidase
# Assay type: biochemical, hog (pig) kidney
# Details: substrate GDP; concentration necessary to produce 50% inhibition of enzyme, calculated from multiple assays
# Procedure: This measured the ability of compounds to inhibit hydrolysis of glycyldehydrophenylalanine (GDP) by a solubilized preparation of dipeptidase isolated from hog kidneys. The procedure is as follows: to a 1 ml. system containing 50 mM "MOPS" (3-(N-morpholino)propanesulfonic acid) buffer, pH 7.1, is added 5 μg of lyophilized enzyme, and the test compound at a final concentration of 0.1 mM. After a five minute incubation at 37° C., GDP is added to a final concentration of 0.05 mM. Incubation is continued for 10 minutes, at 37° C. and hydrolysis of GDP is measured by the change in optical density with time at 275 nm. Inhibition of the enzyme is gauged by comparison to a standard run containing no inhibitor and is expressed as the inhibitor binding constant, Ki. This is the concentration of the inhibitor which achieves 50% inhibition of enzyme.
# A 1 ml. system of 50 mM "MOPS" buffer, pH 7.1, is used. To this is added 5 μg of the pig renal enzyme and an amount of the test compound to bring its final concentration to 0.1 mM. After a five minute incubation at 37° C., an amount of GDP is added to bring its final concentration to 0.05 mM. The system is again incubated for 10 minutes, at 37° C. Hydrolysis of GDP is measured by its change in optical density with time at 275 nm. […]
row,SMILES,Ki
1,"C/C=C(\NC(=O)C1CC1(C)C)C(=O)O (racemic) [Compound 2, Z-2-(2,2-dimethylcyclopropanecarboxamido)-2-butenoic acid]",0.39 µM
2,"C/C=C(\NC(=O)C1CC1(C)C)C(=O)O (single isomer, unassigned; (+)) [Compound 2a, (+)-Z-2-(2,2-dimethylcyclopropanecarboxamido)-2-butenoic acid]",0.12 µM
